Here are results for two compounds from article PMC2809336, “Antidepressant Interactions with the NMDA NR1-1b Subunit” (Journal of Biophysics, 2008).

Format in all cases: binding
Experiment [1] has as its target T1, NMDA NR1-1b S1S2 domain (Rattus norvegicus, UniProt P35439).
T1 construct: (His)8-TSG-LVPRG(thrombin cut site)-S1(394-544)-GT-S2(663-800); (His)8-TSG-LVPRG (His8 tag with thrombin cut site) (N); made in house; host or cells: E. coli Origami B(DE3)
The experiment is described as follows: Intrinsic tryptophan fluorescence quenching and λ max of emission. The note with it: for λ max of the NR1-1b drug bound complex: excitation 290 nm, 25°C, apo 326.24 nm, drug at final quenching concentration. As for the experimental part:
(§1) Intrinsic fluorescence studies were performed in a Cary Eclipse fluorometer at 25°C. All emission scans were acquired from 300 to 400 nm upon excitation at 290 nm, with 10 nm excitation and emission slit widths in a 10 mm-path-length cell. Excitation was performed at 290 nm to minimize interference from both tyrosine residues in the NMDA NR1-1b S1S2 domain as well as the aromatic antidepressants being studied. Before data acquisition, samples were incubated for thirty seconds in the sample holder at 25°C. […] Thus, data was reported without a buffer subtraction.
All antidepressants were solubilized in 100% methanol to the highest attainable concentrations. To account for any effects methanol had on fluorescence intensity, protein spectra with methanol were collected, allowing direct comparison between samples with and without antidepressant. Each data set consisted of at least three independent emission spectra of identically prepared samples. The data is reported with error determined at the 95% confidence level.
The fluorescence intensity of the NR1-1b S1S2 domain was determined in the presence and absence of eachantidepressant with the appropriate blank subtraction. […] For all samples, the final concentration of methanol was kept at 1.8%.

Experiment [2] deals with T1, NMDA NR1-1b S1S2 domain. The experiment can be described thus: Kd determination by intrinsic tryptophan fluorescence (double reciprocal, Benesi-Hildebrand plot). The settings on record: 5.29 μM NR1-1b S1S2, buffer 3 pH 6.5, 25°C, error at 95% confidence level. The protocol: as §1
Protein samples were at a final concentration of 5.29 μM in buffer 3 (10 mM MES, pH 6.5, 25 mM NaCl, 1 mM glycine). All antidepressants were solubilized in 100% methanol to the highest attainable concentrations. To account for any effects methanol had on fluorescence intensity, protein spectra with methanol were collected, allowing direct comparison between samples with and without antidepressant. Each data set consisted of at least three independent emission spectra of identically prepared samples. The data is reported with error determined at the 95% confidence level.
A double reciprocal plot was used to determine Kd, which derives from the Benesi-Hildebrand relationship, provided there is a 1 : 1 binding stoichiometry. […] When 1/ΔF is plotted against 1/[L], a linear relationship exists. The intercept on the x-axis is − K d.. […]

Experiment [3] has as its target T1, NMDA NR1-1b S1S2 domain. The experiment is described as follows: Extrinsic ANS fluorescence. The note with it: ANS 1 : 1 with 5.29 μM NR1-1b S1S2, excitation 380 nm; drug concentrations as in Figure 4. As for the experimental part: Extrinsic fluorescence studies were performed in a Cary Ec-lipse fluorometer at 25°C. All emission scans were acquired from 400 to 600 nm after excitation at 380 nm with 20 nm slit widths for emission and excitation in a 10 mm-path-length cell. Before data acquisition, samples were incubated for thirty seconds in the sample holder at 25°C. Blanks were collected both for the antidepressants and the NR1-1b S1S2 domain. Three emission spectra of identicallyprepared samples were averaged for each plot. 8-Anilino-1-naphthalenesulfonic acid (ANS, TCI America), in a 1 : 1 molar ratio, was added to 5.29 μM of the NR1-1b S1S2 domain premixed with antidepressant (at final concentrations as above for intrinsic quenching studies in addition to the SSRIs fluoxetine (8.62 μM) and fluvoxamine (2.81 mM) and the SNRI venlafaxine (29.07 μM)). As with all intrinsic assays, total methanol concentration was kept at 1.8%. Plots of intensity versus wavelength were constructed from averaged emission spectra.

Take `CN(C)CCCN1c2ccccc2CCc2ccccc21` [imipramine]: at NMDA NR1-1b S1S2 domain [1], the “λ max of the NR1-1b drug bound complex” value was determined as 328.04 nm. Further, the equilibrium dissociation constant (Kd) on NMDA NR1-1b S1S2 domain [2] worked out at 830 ± 150 µM.

`CN[C@H]1CC[C@@H](c2ccc(Cl)c(Cl)c2)c2ccccc21` [sertraline]: on NMDA NR1-1b S1S2 domain [1] (desipramine, trimipramine, imipramine 137 μM, maprotiline 3.18 mM, nortriptyline 2.08 mM, paroxetine 3.75 mM, sertraline 1.88 mM, fluvoxamine 2.81 mM), the “Binding to NR1-1b S1S2 by intrinsic tryptophan fluorescence” value was “binding”. The figures for the “λ max of the NR1-1b drug bound complex” value at NMDA NR1-1b S1S2 domain [1] and on NMDA NR1-1b S1S2 domain [1] (listed as Sertraline) were 329.07 ± 0 nm and 329.07 nm, respectively. Besides, at NMDA NR1-1b S1S2 domain [1] (intensity versus apo NR1-1b S1S2), the “Change of tryptophan fluorescence emission upon binding” value is given as “decrease in fluorescence emission”. At NMDA NR1-1b S1S2 domain [3], the “ANS emission spectrum of the NR1-1b S1S2 complex versus ANS bound to apo S1S2 (binding)” value is “significantly different”.
